Reference: paper PMC9233675, “Ru(II) photocages enable precise control over enzyme activity with red light” (Nature Communications, 2022)
Changes are numbered by the printed parent chain.

Legend:
[1] = Stability of compounds in human liver microsomes; conditions: no co-factor (no NADPH)
CYP1B1 S269A = molecular target: T1, CYP1B1 S269A (Homo sapiens, UniProt Q16678, S269A); assay: In cell CYP1B1 activity assay, S269A variant
T1 sequence (Q16678 1-543 S269A): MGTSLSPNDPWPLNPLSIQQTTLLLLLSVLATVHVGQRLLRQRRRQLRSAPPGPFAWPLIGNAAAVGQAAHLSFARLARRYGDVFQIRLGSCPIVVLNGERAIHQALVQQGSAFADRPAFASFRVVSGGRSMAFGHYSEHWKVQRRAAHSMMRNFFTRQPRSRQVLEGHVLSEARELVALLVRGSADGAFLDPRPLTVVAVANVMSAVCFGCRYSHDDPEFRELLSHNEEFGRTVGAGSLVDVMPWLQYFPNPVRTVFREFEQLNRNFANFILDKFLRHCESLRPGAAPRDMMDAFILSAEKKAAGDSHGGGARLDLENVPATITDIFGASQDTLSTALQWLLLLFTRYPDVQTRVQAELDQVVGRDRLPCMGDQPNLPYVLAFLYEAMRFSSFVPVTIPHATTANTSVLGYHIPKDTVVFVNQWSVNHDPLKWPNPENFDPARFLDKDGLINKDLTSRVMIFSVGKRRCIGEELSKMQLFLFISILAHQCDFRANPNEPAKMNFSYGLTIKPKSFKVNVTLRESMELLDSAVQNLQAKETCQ

CYP1B1 = molecular target: T2, CYP1B1 (Homo sapiens, UniProt Q16678); assay: In cell activity assay for CYP1B1 (7-ethoxyresorufin conversion, HEK293 T-Rex cells)
T2 sequence (Q16678 1-543): T1 sequence (Q16678 1-543 S269A) with A269S

Remaining, % (NCF=60min) [1]	SMILES	IC50 (CYP1B1 S269A)	IC50 (CYP1B1)
86.4%	O=C(O)Cc1ccccc1Nc1c(Cl)cccc1Cl [Diclofenac, reference compound]	–	–
–	O=c1cc(-c2ccccc2)oc2c1ccc1ccccc12 [ANF, α-naphthoflavone, reference compound]	140 nM	140 nM
